Experimental data published in PubChem BioAssay AID1136 (Sanford-Burnham Center for Chemical Genomics, 2008).
The other results are listed elsewhere or left out. The source made the active and inactive calls.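 The calls were made as follows: active = activation factor at least 2 at 20 µM; inactive = the rest.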

Chains of the proteins cited; added tags and fusions are not shown. Lines headed by an entry give the natural chain unless they say otherwise; changes in a name come on top.
UniProt P05186: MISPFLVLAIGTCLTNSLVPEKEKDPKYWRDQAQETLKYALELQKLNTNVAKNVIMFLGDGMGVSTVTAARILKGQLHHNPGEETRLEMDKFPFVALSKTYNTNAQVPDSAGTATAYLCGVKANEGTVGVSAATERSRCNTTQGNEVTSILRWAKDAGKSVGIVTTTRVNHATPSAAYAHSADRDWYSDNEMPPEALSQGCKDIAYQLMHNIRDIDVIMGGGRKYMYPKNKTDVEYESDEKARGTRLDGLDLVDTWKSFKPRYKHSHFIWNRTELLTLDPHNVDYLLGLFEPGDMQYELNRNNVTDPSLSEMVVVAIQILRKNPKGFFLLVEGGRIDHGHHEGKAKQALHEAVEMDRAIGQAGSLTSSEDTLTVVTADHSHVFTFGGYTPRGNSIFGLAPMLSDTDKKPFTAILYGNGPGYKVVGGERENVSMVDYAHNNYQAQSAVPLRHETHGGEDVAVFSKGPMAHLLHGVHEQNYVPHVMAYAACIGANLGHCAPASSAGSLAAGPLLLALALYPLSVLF

What follows are compounds tested against Alkaline phosphatase, tissue-nonspecific isozyme (Homo sapiens) (UniProt P05186) (assay: activation of human TNAP, high DEA acceptor – biochemical, luminescence, uHTS, primary screen (AID 1136)). Settings: purified TNAP, CDP-star luminescence, 1 M DEA, 30 min; at 20 µM; active compounds read high; 0 = EDTA background, 1 = DMSO-only activity.
For `Cc1ccc(NCCc2c([N+](=O)[O-])cc([N+](=O)[O-])cc2[N+](=O)[O-])cc1`, the activation factor was inactive: 0.8. `CCOP1(=S)c2c(C)nn(CCC#N)c2N=C(c2ccccc2F)N1C` (stereo not drawn) was tested, and the activation factor was inactive: 1.1. For `O=[N+]([O-])c1ccc2c(c1)nnn2O`, the activation factor was inactive: 1.1. In the case of `CN(C)C1(CNC(=O)c2ccc(S(C)(=O)=O)cc2)CCCCC1`, the activation factor is reported as inactive: 1.1. In the case of `CC1CCC(C(C)C)C(OP(=O)(Nc2ccccn2)c2ccccc2)C1` (stereo not drawn), the activation factor is reported as inactive: 1.1. In the case of `O=P1(Nc2ccc(Br)cn2)COc2ccccc2OC1`, the activation factor is reported as inactive: 1.1. With `CN(C(=O)Cc1ccc(Cl)c(Cl)c1)[C@@H]1CCCC[C@H]1N1CCCC1` the activation factor was inactive: 1.1. In the case of `COP1(=S)c2c(C)nn(CCC#N)c2N=C(c2ccc(F)cc2)N1C` (stereo not drawn), the activation factor is reported as inactive: 1.1. `CCC(C)N(CC(C)C)C(=S)SC(NC(C)=O)C(Cl)(Cl)Cl` (stereo not drawn) was tested, and the activation factor was inactive: 1.1. For `O=[N+]([O-])c1cc([N+](=O)[O-])c(-c2ccn[nH]2)s1`, the activation factor was inactive: 0.9. In the case of `COc1ccc2nc(NP(=O)(c3ccccc3)c3ccccc3)sc2c1`, the activation factor is reported as inactive: 1.1. For `O=C(OC1CN2CCC1CC2)C12CC3CC(CC(C3)C1)C2` (stereo not drawn), the activation factor was inactive: 1.1. With `O=[N+]([O-])c1cc([N+](=O)[O-])c(CCNc2ccccc2)c([N+](=O)[O-])c1` the activation factor was inactive: 0.9. With `CCc1nc2c(n1)c1c(non1O)c1c2no[n+]1[O-]` the activation factor was inactive: 1.1. For `CC1CCN(C(=O)Oc2c(Cl)cc(Cl)c3cccnc23)CC1`, the activation factor was inactive: 1.1. `CC(C)=N/N=C(\N)N[N+](=O)[O-]` was tested, and the activation factor was inactive: 1.1. `C(Cc1nn[nH]n1)Cc1nn[nH]n1` was tested, and the activation factor was inactive: 1.1. In the case of `O=c1c2cc([N+](=O)[O-])ccc2[nH]c2c([N+](=O)[O-])cc([N+](=O)[O-])cc12`, the activation factor is reported as inactive: 0.7.
